One compound from US11661421B2, “Indolizine compounds, preparation method and use thereof” (HAIHE BIOPHARMA CO., LTD., priority 2018, dated 2023) can be followed below.

The chains behind the UniProt entries cited, without tags or fusion partners.
UniProt Q15910, whole entry Y641F: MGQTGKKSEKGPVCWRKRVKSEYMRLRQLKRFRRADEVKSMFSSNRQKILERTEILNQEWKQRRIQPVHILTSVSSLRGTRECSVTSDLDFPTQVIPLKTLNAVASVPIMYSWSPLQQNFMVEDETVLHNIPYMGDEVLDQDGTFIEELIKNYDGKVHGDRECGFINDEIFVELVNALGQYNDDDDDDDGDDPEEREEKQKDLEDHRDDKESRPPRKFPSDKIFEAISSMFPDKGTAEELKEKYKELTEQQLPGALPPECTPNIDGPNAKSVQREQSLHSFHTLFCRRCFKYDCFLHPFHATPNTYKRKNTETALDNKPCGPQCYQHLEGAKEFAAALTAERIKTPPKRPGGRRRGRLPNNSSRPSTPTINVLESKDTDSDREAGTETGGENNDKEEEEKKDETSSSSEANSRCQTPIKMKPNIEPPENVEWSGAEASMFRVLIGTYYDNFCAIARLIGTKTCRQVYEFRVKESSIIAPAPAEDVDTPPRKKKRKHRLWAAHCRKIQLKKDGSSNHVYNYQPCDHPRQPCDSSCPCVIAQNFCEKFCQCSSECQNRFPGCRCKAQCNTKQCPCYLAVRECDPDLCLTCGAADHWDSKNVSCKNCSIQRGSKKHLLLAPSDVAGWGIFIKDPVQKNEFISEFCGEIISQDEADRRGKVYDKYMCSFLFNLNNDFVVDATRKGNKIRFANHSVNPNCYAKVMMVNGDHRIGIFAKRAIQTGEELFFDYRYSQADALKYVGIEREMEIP

This assay deals with T1, PRC2 complex (EZH2 Y641F/EED/SUZ12/RbAp48/AEBP2) histone methyltransferase (Homo sapiens, UniProt Q15910, Y641F).
T1 construct: purchased Cisbio
Kind of assay: PRC2 complex (EZH2 Y641F) activity assay, HTRF. The assay is classed as biochemical. Conditions: H3(1-50) K27me1 substrate, SAM, 4 h at room temperature, read-out: IC50 (EZH2_Y641F). The text has this:
1. PRC2 Complex (Ezh2y641f) Activity Assay of the Compounds:
Test Method: Homogeneous Time-Resolved Fluorescence (HTRF)
Materials: PRC2 complex (EZH2 Y641F/EED/SUZ12/RbAp48/AEBP2) histone methyltransferase used in the test was purchased from Cisbio; substrate H3(1-50) K27me1 was a product of GL Biochem; methyl donor S-(5′-Adenosyl)-L-methionine chloride dihydrochloride (SAM) was purchased from Sigma-aldrich; Eu-labeled H3K27me3, Streptavidin-XL665 and the buffer used in the test were purchased from Cisbio.
Experiment method: PRC2 complex (EZH2 Y641F/EED/SUZ12/RbAp48/AEBP2), H3(1-50)me1 substrate, methyl donor SAM and the test compound were added to each well to reach a total of 10 μL reaction system and reacted in dark at room temperature for 4h. 5 μL of Eu-labeled H3K27 Me3 antibody and 5 μL of Streptavidin-XL665 were added to each well, mixed uniformly, and incubated at room temperature for 1 h. The fluorescence values at 620 nm and 665 nm were measured with a multi-label microplate analysis system (PerkinElmer Envision), and the HTRF signal ratio (665 nm/620 nm) was calculated for each well. The IC50 values of the compounds were calculated using SoftMax Pro 5.4.1 software.

As to `C=C(c1c(C)c(C(=O)NCc2c(OC)cc(C)[nH]c2=O)cc2c(-c3ccnc(N(C)C)c3)ccn12)N1CCOCC1` [compound 2, 1-(2-(dimethylamino)pyridin-4-yl)-N-((4-methoxy-6-methyl-2-oxo-1,2-dihydropyridin-3-yl)methyl)-6-methyl-5-(1-morpholinylvinyl)indolizine-7-formamide], the IC50 came out at 1.39 nM.

A word on the IC50: it is the concentration that inhibits the measured activity by half.
